Target: CYP3A (Homo sapiens, UniProt P08684)
Assay: CYP3A time-dependent inhibition in human liver microsomes (midazolam probe)
Settings: for Predicted fold-change in AUC of CYP3A substrate: AUCinh/AUC from Ki and kinact, kdeg 0.0005 min^−1, [I] 0.17 μM; for CYP3A Time-Dependent Inhibition kinact / Ki: pooled human liver microsomes, midazolam probe substrate; for Ki: read-out: CYP3A Time-Dependent Inhibition Kl

By UniProt entry, the sequences of proteins in these tests, tags left out. Residues count along the entry.
UniProt P08684, 2-503 limits assumed: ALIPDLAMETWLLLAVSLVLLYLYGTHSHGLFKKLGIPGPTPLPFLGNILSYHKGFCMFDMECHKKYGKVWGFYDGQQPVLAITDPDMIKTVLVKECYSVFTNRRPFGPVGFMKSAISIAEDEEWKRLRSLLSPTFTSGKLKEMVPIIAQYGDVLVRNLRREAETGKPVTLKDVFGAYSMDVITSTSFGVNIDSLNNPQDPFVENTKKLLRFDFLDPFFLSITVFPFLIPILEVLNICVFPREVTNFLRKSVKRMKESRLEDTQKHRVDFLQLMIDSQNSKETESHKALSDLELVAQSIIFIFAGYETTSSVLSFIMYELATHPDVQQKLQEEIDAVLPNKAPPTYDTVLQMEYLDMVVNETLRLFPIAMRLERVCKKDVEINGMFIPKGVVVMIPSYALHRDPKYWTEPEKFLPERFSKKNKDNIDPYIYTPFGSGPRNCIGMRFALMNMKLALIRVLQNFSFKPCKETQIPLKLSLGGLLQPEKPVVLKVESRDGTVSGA

Compound	Predicted fold-change in AUC of CYP3A substrate	CYP3A Time-Dependent Inhibition kinact [min⁻¹]	Ki [nM]
CC[C@H]1OC(=O)[C@H](C)C(=O)[C@H](C)[C@@H](O[C@@H]2O[C@H](C)C[C@H](N(C)C)[C@H]2O)[C@](C)(OC)C[C@@H](C)C(=O)[C@H](C)[C@H]2N(C3CN(Cc4c(Br)cnc5cccnc45)C3)C(=O)O[C@]12C	4.2	0.029	2800
CC[C@H]1OC(=O)[C@H](C)C(=O)[C@H](C)[C@@H](O[C@@H]2O[C@H](C)C[C@H](N(C)C)[C@H]2O)[C@](C)(OC)C[C@@H](C)C(=O)[C@H](C)[C@H]2N(C3CN(Cc4ccnc5cccnc45)C3)C(=O)O[C@]12C	5.4	0.028	2000
